Experimental data: patent US12583836B2 (Anaxis Pharma Pty Ltd, priority 2020, dated 2026)
pKd: −log10 of the molar value.

Sequences of proteins named here, by UniProt entry; tags and fusion partners are left off. A change or cut given only in a name is not applied to a line headed by its entry.
UniProt Q9Y572: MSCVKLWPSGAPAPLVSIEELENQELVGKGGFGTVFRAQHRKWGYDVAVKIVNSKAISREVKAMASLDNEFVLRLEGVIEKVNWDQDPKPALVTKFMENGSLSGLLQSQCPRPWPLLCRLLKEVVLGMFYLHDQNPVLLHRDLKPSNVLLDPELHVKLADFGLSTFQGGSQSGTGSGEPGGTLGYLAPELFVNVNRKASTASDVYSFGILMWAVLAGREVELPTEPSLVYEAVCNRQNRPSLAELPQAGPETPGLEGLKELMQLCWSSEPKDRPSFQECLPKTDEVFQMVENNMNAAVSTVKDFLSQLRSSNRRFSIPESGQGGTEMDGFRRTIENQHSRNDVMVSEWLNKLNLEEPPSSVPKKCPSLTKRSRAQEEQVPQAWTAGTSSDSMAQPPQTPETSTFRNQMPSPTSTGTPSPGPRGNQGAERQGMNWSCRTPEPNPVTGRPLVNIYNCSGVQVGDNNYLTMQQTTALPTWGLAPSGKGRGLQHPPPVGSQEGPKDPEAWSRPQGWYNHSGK

Experiments:
Details in all cases: equilibrium dissociation constant, class symbols
[1] = target: T1, MLKL (full length) (Homo sapiens, UniProt Q8NB16); experiment: KINOMEscan binding assay, MLKL
T1 construct: purchased DiscoverX (KINOMEscan service); host or cells: E. coli BL21-derived (T7 phage) or HEK293
T1 sequence (Q8NB16 1-471): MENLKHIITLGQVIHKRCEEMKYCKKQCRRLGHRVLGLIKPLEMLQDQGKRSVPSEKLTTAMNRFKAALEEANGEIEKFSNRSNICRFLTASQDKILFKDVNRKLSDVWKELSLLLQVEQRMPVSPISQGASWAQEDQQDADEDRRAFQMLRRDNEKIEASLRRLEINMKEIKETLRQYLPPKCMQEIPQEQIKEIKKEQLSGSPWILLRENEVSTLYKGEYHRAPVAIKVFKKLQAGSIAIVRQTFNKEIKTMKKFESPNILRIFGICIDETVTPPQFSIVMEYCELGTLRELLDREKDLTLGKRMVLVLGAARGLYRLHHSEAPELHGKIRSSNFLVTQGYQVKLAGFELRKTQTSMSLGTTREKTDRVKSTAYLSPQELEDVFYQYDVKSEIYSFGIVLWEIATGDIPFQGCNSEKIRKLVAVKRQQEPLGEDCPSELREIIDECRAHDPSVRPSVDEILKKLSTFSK

[2] = target: T2, RIP3 (Homo sapiens, UniProt Q9Y572); experiment: KINOMEscan binding assay, RIP3
T2 construct: purchased DiscoverX (KINOMEscan service); host or cells: E. coli BL21-derived (T7 phage) or HEK293

[3] = target: T3, RIP1 (Homo sapiens, UniProt Q13546); experiment: KINOMEscan binding assay, RIP1
T3 construct: purchased DiscoverX (KINOMEscan service); host or cells: E. coli BL21-derived (T7 phage) or HEK293
T3 sequence (Q13546 1-671): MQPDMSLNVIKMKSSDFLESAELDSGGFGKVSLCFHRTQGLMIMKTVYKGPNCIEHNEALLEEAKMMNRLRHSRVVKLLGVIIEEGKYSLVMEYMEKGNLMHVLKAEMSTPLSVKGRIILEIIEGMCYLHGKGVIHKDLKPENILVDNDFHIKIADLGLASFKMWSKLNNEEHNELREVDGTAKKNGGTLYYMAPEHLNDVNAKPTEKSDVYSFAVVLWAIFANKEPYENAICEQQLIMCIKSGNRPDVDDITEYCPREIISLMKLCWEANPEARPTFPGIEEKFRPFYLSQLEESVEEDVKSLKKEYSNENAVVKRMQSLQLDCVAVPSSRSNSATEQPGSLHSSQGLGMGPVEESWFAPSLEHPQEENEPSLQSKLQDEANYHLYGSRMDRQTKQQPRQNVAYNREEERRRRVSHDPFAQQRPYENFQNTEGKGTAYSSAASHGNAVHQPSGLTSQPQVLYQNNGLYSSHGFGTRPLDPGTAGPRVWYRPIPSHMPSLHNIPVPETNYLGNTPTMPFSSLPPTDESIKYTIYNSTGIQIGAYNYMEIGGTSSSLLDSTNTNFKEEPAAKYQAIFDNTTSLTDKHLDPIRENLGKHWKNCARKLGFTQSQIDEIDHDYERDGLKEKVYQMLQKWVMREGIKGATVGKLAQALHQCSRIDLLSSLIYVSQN

Row | pKd [1] | pKd [2] | pKd [3] | Structure (SMILES)
1 | > 8.00 | < 4.52 | < 4.52 | NC(=O)c1c(-c2ccc(NS(=O)(=O)C(F)F)c(OCc3nccs3)c2)n[nH]c1Nc1cnccn1 [Compound 275, 3-(4-((difluoromethyl)sulfonamido)-3-(thiazol-2-ylmethoxy)phenyl)-5-(pyrazin-2-ylamino)-1H-pyrazole-4-carboxamide]
2 | > 8.00 | < 4.52 | < 4.52 | C[C@H](Oc1cc(-c2n[nH]c(Nc3cc(C4(C)CC4)on3)c2C(N)=O)ccc1NS(=O)(=O)C(F)F)c1ccc(F)cc1 [Compound 276, (S)-3-(4-((difluoromethyl)sulfonamido)-3-(1-(4-fluorophenyl)ethoxy)phenyl)-5-((5-(1-methylcyclopropyl)isoxazol-3-yl)amino)-1H-pyrazole-4-carboxamide]
3 | > 8.00 | < 4.52 | < 4.52 | C[C@H](Oc1cc(-c2n[nH]c(Nc3cc(C(F)(F)F)n(C)n3)c2C(N)=O)ccc1NS(=O)(=O)C(F)F)c1ccc(F)cc1 [Compound 277, (S)-3-(4-((difluoromethyl)sulfonamido)-3-(1-(4-fluorophenyl)ethoxy)phenyl)-5-((1-methyl-5-(trifluoromethyl)-1H-pyrazol-3-yl)amino)-1H-pyrazole-4-carboxamide]
4 | > 8.00 | < 4.52 | < 4.52 | C[C@H](Oc1cc(-c2n[nH]c(Nc3ccc(C4CCOCC4)cn3)c2C(N)=O)ccc1NS(=O)(=O)C(F)F)c1ccc(F)cc1 [Compound 278, (S)-3-(4-((difluoromethyl)sulfonamido)-3-(1-(4-fluorophenyl)ethoxy)phenyl)-5-((5-(tetrahydro-2H-pyran-4-yl)pyridin-2-yl)amino)-1H-pyrazole-4-carboxamide]
5 | > 8.00 | < 4.52 | < 4.52 | C[C@H](Oc1cc(-c2n[nH]c(Nc3cc(C4CCC4)on3)c2C(N)=O)ccc1NS(=O)(=O)C(F)F)c1ccc(F)cc1 [Compound 281, (S)-5-((5-cyclobutylisoxazol-3-yl)amino)-3-(4-((difluoromethyl)sulfonamido)-3-(1-(4-fluorophenyl)ethoxy)phenyl)-1H-pyrazole-4-carboxamide]
6 | > 8.00 | < 4.52 | < 4.52 | C[C@H](Oc1cc(-c2n[nH]c(Nc3ncn(C)n3)c2C(N)=O)ccc1NS(=O)(=O)C(F)F)c1ccc(F)cc1 [Compound 283, (S)-3-(4-((difluoromethyl)sulfonamido)-3-(1-(4-fluorophenyl)ethoxy)phenyl)-5-((1-methyl-1H-1,2,4-triazol-3-yl)amino)-1H-pyrazole-4-carboxamide]
7 | > 8.00 | < 4.52 | < 4.52 | Cc1nc(Nc2[nH]nc(-c3ccc(NS(=O)(=O)C(F)F)c(O[C@@H](C)c4ccc(F)cc4)c3)c2C(N)=O)sc1C [Compound 284, (S)-3-(4-((difluoromethyl)sulfonamido)-3-(1-(4-fluorophenyl)ethoxy)phenyl)-5-((4,5-dimethylthiazol-2-yl)amino)-1H-pyrazole-4-carboxamide]
8 | > 8.00 | < 4.52 | < 4.52 | Cc1cn(C)nc1Nc1[nH]nc(-c2ccc(NS(=O)(=O)C(F)F)c(O[C@@H](C)c3ccc(F)cc3)c2)c1C(N)=O [Compound 286]
9 | > 8.00 | < 4.52 | < 4.52 | C[C@H](Oc1cc(-c2n[nH]c(Nc3cc(C4CCOCC4)ccn3)c2C(N)=O)ccc1NS(=O)(=O)C(F)F)c1ccc(F)cc1 [Compound 287, (S)-3-(4-((difluoromethyl)sulfonamido)-3-(1-(4-fluorophenyl)ethoxy)phenyl)-5-((4-(tetrahydro-2H-pyran-4-yl)pyridin-2-yl)amino)-1H-pyrazole-4-carboxamide]
10 | > 8.00 | < 4.52 | < 4.52 | COCC(C)(C)c1cc(Nc2[nH]nc(-c3ccc(NS(=O)(=O)C(F)F)c(O[C@@H](C)c4ccc(F)cc4)c3)c2C(N)=O)no1 [Compound 288, (S)-3-(4-((difluoromethyl)sulfonamido)-3-(1-(4-fluorophenyl)ethoxy)phenyl)-5-((5-(1-methoxy-2-methylpropan-2-yl)isoxazol-3-yl)amino)-1H-pyrazole-4-carboxamide]
11 | > 8.00 | < 4.52 | < 4.52 | C[C@H](Oc1cc(-c2n[nH]c(Nc3cc(C4(C(F)(F)F)CC4)on3)c2C(N)=O)ccc1NS(=O)(=O)C(F)F)c1ccc(F)cc1 [Compound 289, (S)-3-(4-((difluoromethyl)sulfonamido)-3-(1-(4-fluorophenyl)ethoxy)phenyl)-5-((5-(1-(trifluoromethyl)cyclopropyl)isoxazol-3-yl)amino)-1H-pyrazole-4-carboxamide]
12 | > 8.00 | < 4.52 | < 4.52 | Cc1cnc(Nc2[nH]nc(-c3ccc(NS(=O)(=O)C(F)F)c(OC4(c5ccc(F)cc5)CC4)c3)c2C(N)=O)cn1 [Compound 290, 3-(4-((difluoromethyl)sulfonamido)-3-(1-(4-fluorophenyl)cyclopropoxy)phenyl)-5-((5-methylpyrazin-2-yl)amino)-1H-pyrazole-4-carboxamide]
13 | > 8.00 | < 4.52 | < 4.52 | C[C@H](Oc1cc(-c2n[nH]c(Nc3cc(C4(C)COC4)on3)c2C(N)=O)ccc1NS(=O)(=O)C(F)F)c1ccc(F)cc1 [Compound 292, (S)-3-(4-((difluoromethyl)sulfonamido)-3-(1-(4-fluorophenyl)ethoxy)phenyl)-5-((5-(3-methyloxetan-3-yl)isoxazol-3-yl)amino)-1H-pyrazole-4-carboxamide]
14 | > 8.00 | < 4.52 | < 4.52 | COc1cc(Nc2[nH]nc(-c3ccc(NS(=O)(=O)C(F)F)c(O[C@@H](C)c4ccc(F)cc4)c3)c2C(N)=O)nn1C [Compound 294, (S)-3-(4-((difluoromethyl)sulfonamido)-3-(1-(4-fluorophenyl)ethoxy)phenyl)-5-((5-methoxy-1-methyl-1H-pyrazol-3-yl)amino)-1H-pyrazole-4-carboxamide]
15 | > 8.00 | < 4.52 | < 4.52 | C[C@H](Oc1cc(-c2n[nH]c(Nc3cc(C(C)(C)C)no3)c2C(N)=O)ccc1NS(=O)(=O)C(F)F)c1ccc(F)cc1 [Compound 295, (S)-5-((3-(tert-butyl)isoxazol-5-yl)amino)-3-(4-((difluoromethyl)sulfonamido)-3-(1-(4-fluorophenyl)ethoxy)phenyl)-1H-pyrazole-4-carboxamide]
16 | > 8.00 | < 4.52 | < 4.52 | C[C@H](Oc1cc(-c2n[nH]c(Nc3cnc(C4CCOCC4)cn3)c2C(N)=O)ccc1NS(=O)(=O)C(F)F)c1ccc(F)cc1 [Compound 296, (S)-3-(4-((difluoromethyl)sulfonamido)-3-(1-(4-fluorophenyl)ethoxy)phenyl)-5-((5-(tetrahydro-2H-pyran-4-yl)pyrazin-2-yl)amino)-1H-pyrazole-4-carboxamide]
17 | > 8.00 | < 4.52 | < 4.52 | Cc1cc(Nc2[nH]nc(-c3ccc(NS(=O)(=O)C(F)F)c(O[C@@H](C)c4ccc(F)cc4)c3)c2C(N)=O)on1 [Compound 302, (S)-3-(4-((difluoromethyl)sulfonamido)-3-(1-(4-fluorophenyl)ethoxy)phenyl)-5-((3-methylisoxazol-5-yl)amino)-1H-pyrazole-4-carboxamide]
